Results from US5605929A, “Methods and compositions for inhibiting 5α-reductase activity” (priority 1995, dated 1997).

System: hamster flank organ
Test: Flank organ, castrated immature male hamsters, topical treatment
Format: in vivo, Syrian golden hamster
Settings: 24 days
Experimental: One to two weeks after castration, the hair on the lower back of each animal was clipped with an electric hair clipper and then shaved weekly to expose the flank organs. The animals were divided into 5 animals/treatment group. A treatment solution (5 μl) was applied topically to the right flank organ once a day using a Pipetteman and a polypropylene disposable tip. Unless specified the left flank organ was not treated. The treatment solution contained either (a) ethanol alone (vehicle and control), (b) an androgen (T or 5α-DHT), (c) a fatty acid, or (d) a combination of an androgen and a fatty acid. The flank organ was wiped with an alcohol pad to remove residual compound before each treatment. […] The flank organs, both the treated and untreated sides, were evaluated with methods to be described below to determine the effect of these treatments of the growth of the pigmented macules and the sebaceous glands. The body weight of each animal was recorded before and after treatment.
The data are presented as mean ± standard deviation. […]

SMILES: C[C@]12CC[C@H]3[C@@H](CCC4=CC(=O)CC[C@@]43C)[C@@H]1CC[C@@H]2O [T, Testosterone, reference compound]
- index of the area of the pigmented macule (0.5 μg/flank organ/day, control 2.4±1.4): 45.6±8.0 mm^2
- index of the area of the pigmented macule (2 μg/flank organ/day): 69.4±13.7 mm^2
- index of the area of the pigmented macule (5 μg/flank organ/day): 66.4±4.2 mm^2
